## Yeast mating assay 1: variants of the scFv Ab-14

Source: Engelhart et al. 2022 (doi:10.1038/s41597-022-01779-4), MIT Lincoln Laboratory and A-Alpha Bio; data file from the FLAb repository.

Antigen: PDVDLGDISGINAS, a 14-residue peptide of the SARS-CoV-2 spike HR2 region.

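The parent was found by panning a naive human phage display library on the peptide. The library (AAYL49) carries one to three amino acid substitutions per variant, with no insertions or deletions. AlphaSeq pools MATa yeast showing the antibodies with MATalpha yeast showing the peptide. After mating in shaken culture at 30 °C for 16 h, diploids were selected and their barcode pairs sequenced. Scores were corrected for input abundance and mapped to Kd with protein pairs of known affinity run in the same pool. Each pool was mated in three replicate cultures.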

The variants keep the light chain, the linker and the frameworks of Ab-14 (scFv order VH, a (GGGGS)3 linker, VL).
VH: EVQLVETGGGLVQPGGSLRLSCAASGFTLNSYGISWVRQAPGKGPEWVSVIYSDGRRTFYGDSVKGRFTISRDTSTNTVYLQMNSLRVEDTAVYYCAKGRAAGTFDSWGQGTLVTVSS
VL: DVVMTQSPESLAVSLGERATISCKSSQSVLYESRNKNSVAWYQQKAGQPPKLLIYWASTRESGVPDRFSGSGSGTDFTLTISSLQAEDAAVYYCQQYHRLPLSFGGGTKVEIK

Each variant's VH is given in full.
Every variant below is changed at V50 of the VH (sequential numbering).
Each Kd is an estimate from the mating assay, the geometric mean of the replicates in which the pair was seen; lower is stronger.
"nd" means that the variant was in the library but no mating with the target was seen in any replicate; the authors take this as a sign of poor binding, and no number exists.

The variant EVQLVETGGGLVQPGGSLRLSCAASGFTLNSYGISWVRQAPGKGPEWVSMIYWDGRRTFYGDSVWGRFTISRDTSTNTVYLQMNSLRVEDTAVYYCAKGRAAGTFDSWGQGTLVTVSS gave nd (0 of 3 replicates; controls 1 of 9).
The variant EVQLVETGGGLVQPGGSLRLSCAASGFTLNSYGISWVRQAPGKGPEWVSNISSDGRRYFYGDSVKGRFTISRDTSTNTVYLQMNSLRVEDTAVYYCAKGRAAGTFDSWGQGTLVTVSS gave nd (0 of 3 replicates; controls 0 of 9).
The variant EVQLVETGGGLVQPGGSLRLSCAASGFTLNSYGISWVRQAPGKGPEWVSGIYSDGRRTFYGDSFKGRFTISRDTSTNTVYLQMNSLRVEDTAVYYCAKGRAIGTFDSWGQGTLVTVSS gave nd (0 of 3 replicates; controls 0 of 9).
The variant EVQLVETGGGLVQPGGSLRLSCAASGFTLNSYGIPWVRQAPGKGPEWVSRIYSDGRRTFYGDSVKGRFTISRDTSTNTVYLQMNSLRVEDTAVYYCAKGYAAGTFDSWGQGTLVTVSS gave nd (0 of 3 replicates; controls 1 of 9).
The variant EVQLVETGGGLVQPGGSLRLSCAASGFTLNSYHISWVRQAPGKGPEWVSEIYSDGRRTFYGDSVKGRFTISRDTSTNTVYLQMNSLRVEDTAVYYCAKGRLAGTFDSWGQGTLVTVSS gave nd (0 of 3 replicates; controls 1 of 9).
The variant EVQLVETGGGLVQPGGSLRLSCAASGFTLNTYGISWVRQAPGKGPEWVSIIYSDGRRTFYGDSVKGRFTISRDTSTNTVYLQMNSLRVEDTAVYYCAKARAAGTFDSWGQGTLVTVSS gave 12 µM (3 of 3 replicates; controls 9 of 9).
The variant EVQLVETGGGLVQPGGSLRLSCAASGFTLNSYGISWVRQAPGKGPEWVSCIYSDGRRRFYGDSVKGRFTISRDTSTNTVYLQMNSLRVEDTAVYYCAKGRAAGTFDSWGQGTLVTVSS gave 540 nM (1 of 3 replicates; controls 0 of 9).
The variant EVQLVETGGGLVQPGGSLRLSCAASGFTLNSYGISWVRQAPGKGPEWVSLIYSDGRRFFYGLSVKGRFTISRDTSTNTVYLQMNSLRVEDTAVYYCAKGRAAGTFDSWGQGTLVTVSS gave nd (0 of 3 replicates; controls 0 of 9).
The variant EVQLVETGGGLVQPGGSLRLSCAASGFTLNSYGISWVRQAPGKGPEWVSYIYSDGRRTFYGDSVGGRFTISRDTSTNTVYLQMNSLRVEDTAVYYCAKGRAAGTNDSWGQGTLVTVSS gave nd (0 of 3 replicates; controls 1 of 9).
The variant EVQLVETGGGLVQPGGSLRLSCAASGFTLNGYGISWVRQAPGKGPEWVSPIYSDGRRTFYGDSVKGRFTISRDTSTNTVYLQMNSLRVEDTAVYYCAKGRAAGTFDAWGQGTLVTVSS gave nd (0 of 3 replicates; controls 0 of 9).
The variant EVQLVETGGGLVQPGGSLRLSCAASGFTLNSYGFSWVRQAPGKGPEWVSRIYSDGRRTFYGDSVYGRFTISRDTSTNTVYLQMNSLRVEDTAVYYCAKGRAAGTFDSWGQGTLVTVSS gave 93 µM (1 of 3 replicates; controls 1 of 9).
The variant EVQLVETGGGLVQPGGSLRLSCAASGRILNSYGISWVRQAPGKGPEWVSDIYSDGRRTFYGDSVKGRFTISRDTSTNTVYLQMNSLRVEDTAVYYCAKGRAAGTFDSWGQGTLVTVSS gave nd (0 of 3 replicates; controls 5 of 9).
The variant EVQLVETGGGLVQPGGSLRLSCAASGLTLNSYGISWVRQAPGKGPEWVSPIYSDGRRTFYGDSVKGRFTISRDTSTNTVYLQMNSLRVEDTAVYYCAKGRANGTFDSWGQGTLVTVSS gave 150 µM (3 of 3 replicates; controls 3 of 9).
The variant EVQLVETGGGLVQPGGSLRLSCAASGFHLNSYGISWVRQAPGKGPEWVSWIYSDGRRTFYGDSVKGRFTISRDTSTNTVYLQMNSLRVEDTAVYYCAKARAAGTFDSWGQGTLVTVSS gave 76 µM (1 of 3 replicates; controls 0 of 9).
The variant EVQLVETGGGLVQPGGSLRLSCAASGFTLNSYGISWVRQAPGKGPEWVSGTYSDGRRTFYGDEVKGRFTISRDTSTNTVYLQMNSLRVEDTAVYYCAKGRAAGTFDSWGQGTLVTVSS gave nd (0 of 3 replicates; controls 0 of 9).
The variant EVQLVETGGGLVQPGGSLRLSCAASGTTLNSYGIIWVRQAPGKGPEWVSGIYSDGRRTFYGDSVKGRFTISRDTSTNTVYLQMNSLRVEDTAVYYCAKGRAAGTFDSWGQGTLVTVSS gave 1.6 µM (1 of 3 replicates; controls 4 of 9).
The variant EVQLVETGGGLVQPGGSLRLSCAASGFTLNSYGISWVRQAPGKGPEWVSHIYSDGRRTFYGDSVKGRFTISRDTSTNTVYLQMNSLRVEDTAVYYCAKGNAAGTMDSWGQGTLVTVSS gave 220 µM (2 of 3 replicates; controls 2 of 9).
The variant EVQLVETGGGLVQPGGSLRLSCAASNFTLNSQGISWVRQAPGKGPEWVSDIYSDGRRTFYGDSVKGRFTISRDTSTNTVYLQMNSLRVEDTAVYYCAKGRAAGTFDSWGQGTLVTVSS gave 110 µM (1 of 3 replicates; controls 2 of 9).
The variant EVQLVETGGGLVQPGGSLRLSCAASGFTLNSYGGSWVRQAPGKGPEWVSTIYSDGRRTFYGDEVKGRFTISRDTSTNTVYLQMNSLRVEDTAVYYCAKGRAAGTFDSWGQGTLVTVSS gave nd (0 of 3 replicates; controls 0 of 9).
The variant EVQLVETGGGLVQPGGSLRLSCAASGFTLNSYGISWVRQAPGKGPEWVSQIYSDGRRTFYGDSVKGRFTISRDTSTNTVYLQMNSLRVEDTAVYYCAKLRAAGQFDSWGQGTLVTVSS gave nd (0 of 3 replicates; controls 0 of 9).
The variant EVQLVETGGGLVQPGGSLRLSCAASGFTLNSYGISWVRQAPGKGPEWVSHIYSDGRRRFYGDSVNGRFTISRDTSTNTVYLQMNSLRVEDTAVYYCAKGRAAGTFDSWGQGTLVTVSS gave 690 µM (1 of 3 replicates; controls 5 of 9).
The variant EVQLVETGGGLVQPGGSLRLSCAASGFTLNSYGISWVRQAPGKGPEWVSTIYSQGRRTFYMDSVKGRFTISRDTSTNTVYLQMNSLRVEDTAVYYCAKGRAAGTFDSWGQGTLVTVSS gave nd (0 of 3 replicates; controls 0 of 9).
The variant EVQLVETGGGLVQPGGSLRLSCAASGFTCNSYGISWVRQAPGKGPEWVSTIYSDGTRTFYGDSVKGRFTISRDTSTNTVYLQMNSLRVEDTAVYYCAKGRAAGTFDSWGQGTLVTVSS gave nd (0 of 3 replicates; controls 0 of 9).
The variant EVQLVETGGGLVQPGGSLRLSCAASGFTLNSYGISWVRQAPGKGPEWVSIIYSDGRRTVYGDSVKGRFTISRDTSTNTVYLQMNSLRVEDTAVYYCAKGRAAGTFDSWGQGTLVTVSS gave 100 nM (3 of 3 replicates; controls 1 of 9).
The variant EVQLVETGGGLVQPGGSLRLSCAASGFTLNSYGISWVRQAPGKGPEWVSYIYSDGRRTFYGDPVKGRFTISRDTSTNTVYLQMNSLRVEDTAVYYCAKGRAAGSFDSWGQGTLVTVSS gave 550 nM (1 of 3 replicates; controls 2 of 9).

Extract of 3 entries:

VH	Kd (apparent)	replicates with signal	empty controls
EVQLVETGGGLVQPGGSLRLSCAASGFTLNSYGISWVRQAPGKGPEWVSYIYSDGRRTFYGDSVGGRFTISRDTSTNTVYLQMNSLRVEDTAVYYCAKGRAAGTNDSWGQGTLVTVSS	nd	0 of 3	1 of 9
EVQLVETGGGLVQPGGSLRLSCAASGFTLNSYGGSWVRQAPGKGPEWVSTIYSDGRRTFYGDEVKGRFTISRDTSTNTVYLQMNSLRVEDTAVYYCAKGRAAGTFDSWGQGTLVTVSS	nd	0 of 3	0 of 9
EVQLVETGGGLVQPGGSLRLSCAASGFTLNSYGIPWVRQAPGKGPEWVSRIYSDGRRTFYGDSVKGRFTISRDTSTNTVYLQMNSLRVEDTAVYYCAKGYAAGTFDSWGQGTLVTVSS	nd	0 of 3	1 of 9

Parent in this assay: reference entry 4.4 nM, copy in this library 13 µM (one replicate of three).
Background: pairings of library AAYL49 with three empty control strains gave a value in 15% of cases (median 11 µM, 5th percentile 680 nM). Values in that range, when seen in few replicates, are hard to tell from nonspecific mating. For each scFv, signals with the empty controls are counted beside the result.